These are literature values, as cited in patent US9095152B2, “Method for disinfecting, sanitizing, and packaging ready-to-eat produce” (dated 2015).

The data set relates to Microbial counts. The conditions noted are these: chlorine alone.

As for chlorine, the “log reduction in Microbial counts” value is given as 1- to 2 log.
